The pKa is the negative logarithm of the acid dissociation constant.

Where two headings read alike, the source gives them in different places.

The nature of data set [1]: physchem.
The conditions of data set [2]: PAMPA; for Pm^7.4: pH 7.4. (The PAMPA barrier holds no transporters, so it reflects passive diffusion.)
For data set [3] the following is noted: mouse, in vivo; cited from earlier work.
For data set [4] the following is noted: in vivo; cited from earlier work.

As for `Cc1nc2n(c(=O)c1CCN1CCC(c3noc4cc(F)ccc34)CC1)CCCC2` [Risperidone], the pKa in data set [1] is 7.81. Also, in data set [2], the “log PABL” value is recorded as −3.25, the “log Po” value was −4.00, the “log Ppara” value is −6.25 and the “Pm^7.4” value came to 28.
As to [D-Pen^2,5]-Enkephalin [DPDPE], the PS in data set [3] is on record as 1 10^−4 mLg^−1s^−1.
Consider `CNCC[C@@H](Oc1ccccc1C)c1ccccc1` [Atomoxetine], for which the “Pm^7.4” value in data set [2] turned out to be 79. Moreover, in data set [4], the PS is on record as 407 10^−4 mLg^−1s^−1.

The values above are taken from article PMC3034772 (Pharmaceutical research, 2010).
